Legend:
MDR1 (MDR1-MDCKII cells) = MDR1 (MDR1-MDCKII cells) (Homo sapiens, UniProt P08183); experiment: Permeability in MDR1-MDCKII cells; conditions: for MDCKII-MDR1: Papp A-B: MDCKII-MDR1, apical to basolateral
wtKIT [1] = molecular target: T1, wtKIT (Homo sapiens, UniProt P10721); experiment: Caliper biochemical assay, wtKIT; conditions: read-out: KIT Biochemical IC50 avg, Table 6
CSF-1R [2] = molecular target: T2, CSF-1R (Homo sapiens, UniProt P07333); experiment: Caliper biochemical assay, CSF-1R; conditions: read-out: CSF-1R Biochemical IC50, Table 6
[3] = test system: KIT phosphorylation in M-07e cells; experiment: Cell-based KIT phosphorylation in M-07e cells by pKIT ELISA; conditions: read-out: M-07e pKIT IC50, SCF stimulation
[4] = molecular target: BCRP (BCRP-MDCKII monolayer) (Homo sapiens, UniProt Q9UNQ0); experiment: MDCKII-BCRP bidirectional transport assay; conditions: for MDCK-BCRP: Papp A-B: apical to basolateral
Caco-2 cells = experiment: Caco-2 permeability assay; conditions: for Caco-2: Papp A-B: Caco-2, apical to basolateral
Kinetic solubility assay = conditions: 50 mM PB (pH 7.4), shaken 24 hours at RT
PDGFRα [5] = molecular target: T3, PDGFRα (Homo sapiens, UniProt P16234); experiment: Caliper biochemical assay, PDGFRα; conditions: read-out: PDGFRα Biochemical Avg IC50, Table 6
wtKIT [6] = molecular target: T1, wtKIT; experiment: HTRF biochemical assay, wtKIT (phosphorylation of a peptide substrate); conditions: read-out: KIT Biochemical IC50 avg, Table 4
CYP3A4 = experiment: Hepatocyte CYP induction assay, CYP3A4 gene expression; conditions: human hepatocytes
[7] = Three time point assay for plasma, brain and testes distribution after oral dosing; conditions: rat, time point 2 h
PDGFRα [8] = molecular target: T3, PDGFRα; experiment: HTRF biochemical assay, PDGFRα; conditions: read-out: PDFGRα Biochemical IC50 avg, Table 4
CSF-1R [9] = molecular target: T2, CSF-1R; experiment: HTRF biochemical assay, CSF-1R; conditions: read-out: CSF-1R Biochemical IC50 avg, Table 4

Protein sequences, listed by entry. Tags and fused reporters are not part of them. Residues count along the entry.
UniProt P08183, whole entry: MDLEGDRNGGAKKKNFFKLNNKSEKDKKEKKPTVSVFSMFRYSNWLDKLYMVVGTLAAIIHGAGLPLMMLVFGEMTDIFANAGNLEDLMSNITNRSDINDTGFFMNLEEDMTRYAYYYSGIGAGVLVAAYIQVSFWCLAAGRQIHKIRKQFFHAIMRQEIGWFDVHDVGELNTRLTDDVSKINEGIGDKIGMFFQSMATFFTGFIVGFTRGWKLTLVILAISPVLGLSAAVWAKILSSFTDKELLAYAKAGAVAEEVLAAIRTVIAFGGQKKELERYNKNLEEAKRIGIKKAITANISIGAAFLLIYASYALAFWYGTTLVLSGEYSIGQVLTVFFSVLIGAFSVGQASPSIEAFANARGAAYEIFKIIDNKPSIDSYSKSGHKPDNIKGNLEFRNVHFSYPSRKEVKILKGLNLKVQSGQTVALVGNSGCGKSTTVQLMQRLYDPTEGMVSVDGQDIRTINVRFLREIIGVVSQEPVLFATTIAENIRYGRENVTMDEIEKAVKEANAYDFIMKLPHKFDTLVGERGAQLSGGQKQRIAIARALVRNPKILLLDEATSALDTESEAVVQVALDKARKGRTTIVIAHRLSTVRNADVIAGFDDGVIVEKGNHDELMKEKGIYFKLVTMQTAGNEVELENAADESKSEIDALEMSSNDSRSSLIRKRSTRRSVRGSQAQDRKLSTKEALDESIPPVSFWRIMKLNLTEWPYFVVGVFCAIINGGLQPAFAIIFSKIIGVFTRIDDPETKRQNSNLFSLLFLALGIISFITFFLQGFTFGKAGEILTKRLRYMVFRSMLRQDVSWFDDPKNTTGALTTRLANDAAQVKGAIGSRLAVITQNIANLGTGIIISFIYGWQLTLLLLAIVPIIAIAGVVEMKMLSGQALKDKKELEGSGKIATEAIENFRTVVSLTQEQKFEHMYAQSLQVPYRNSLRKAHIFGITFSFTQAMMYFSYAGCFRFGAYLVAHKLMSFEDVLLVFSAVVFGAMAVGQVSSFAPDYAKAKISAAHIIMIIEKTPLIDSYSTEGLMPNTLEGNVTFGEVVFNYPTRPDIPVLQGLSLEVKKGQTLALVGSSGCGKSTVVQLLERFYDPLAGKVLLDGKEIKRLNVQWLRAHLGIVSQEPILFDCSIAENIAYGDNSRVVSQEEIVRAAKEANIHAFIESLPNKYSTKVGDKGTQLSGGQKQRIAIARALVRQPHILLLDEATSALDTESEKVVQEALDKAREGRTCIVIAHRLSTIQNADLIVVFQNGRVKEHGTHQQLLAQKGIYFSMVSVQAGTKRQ
UniProt P10721, 26-976 limits assumed: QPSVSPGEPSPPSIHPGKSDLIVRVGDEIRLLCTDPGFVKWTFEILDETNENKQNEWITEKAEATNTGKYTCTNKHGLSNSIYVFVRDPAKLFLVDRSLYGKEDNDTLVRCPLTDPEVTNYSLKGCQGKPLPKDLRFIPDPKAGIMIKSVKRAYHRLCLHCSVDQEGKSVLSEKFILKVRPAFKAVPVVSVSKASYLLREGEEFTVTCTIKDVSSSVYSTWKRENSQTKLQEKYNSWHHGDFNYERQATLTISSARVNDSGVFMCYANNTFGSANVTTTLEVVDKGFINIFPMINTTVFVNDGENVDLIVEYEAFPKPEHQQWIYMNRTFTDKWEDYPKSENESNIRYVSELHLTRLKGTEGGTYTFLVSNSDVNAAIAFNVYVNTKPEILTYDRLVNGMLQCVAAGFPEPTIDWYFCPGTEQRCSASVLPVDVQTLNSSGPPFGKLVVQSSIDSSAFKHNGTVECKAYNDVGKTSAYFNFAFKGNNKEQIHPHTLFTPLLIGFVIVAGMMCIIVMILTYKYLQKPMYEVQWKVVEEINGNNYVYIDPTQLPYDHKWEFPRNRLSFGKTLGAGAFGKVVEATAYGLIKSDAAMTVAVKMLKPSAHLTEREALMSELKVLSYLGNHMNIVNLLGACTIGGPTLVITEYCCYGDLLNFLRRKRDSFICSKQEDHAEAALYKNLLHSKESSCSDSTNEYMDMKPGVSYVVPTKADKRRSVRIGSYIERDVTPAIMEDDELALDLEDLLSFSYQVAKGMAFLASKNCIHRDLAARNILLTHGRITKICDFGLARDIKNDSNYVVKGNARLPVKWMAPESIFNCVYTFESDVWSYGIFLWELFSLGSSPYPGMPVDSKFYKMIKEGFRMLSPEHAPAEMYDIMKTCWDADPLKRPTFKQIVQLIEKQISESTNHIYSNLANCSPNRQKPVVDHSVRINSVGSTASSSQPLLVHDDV
UniProt P07333, 20-972 limits assumed: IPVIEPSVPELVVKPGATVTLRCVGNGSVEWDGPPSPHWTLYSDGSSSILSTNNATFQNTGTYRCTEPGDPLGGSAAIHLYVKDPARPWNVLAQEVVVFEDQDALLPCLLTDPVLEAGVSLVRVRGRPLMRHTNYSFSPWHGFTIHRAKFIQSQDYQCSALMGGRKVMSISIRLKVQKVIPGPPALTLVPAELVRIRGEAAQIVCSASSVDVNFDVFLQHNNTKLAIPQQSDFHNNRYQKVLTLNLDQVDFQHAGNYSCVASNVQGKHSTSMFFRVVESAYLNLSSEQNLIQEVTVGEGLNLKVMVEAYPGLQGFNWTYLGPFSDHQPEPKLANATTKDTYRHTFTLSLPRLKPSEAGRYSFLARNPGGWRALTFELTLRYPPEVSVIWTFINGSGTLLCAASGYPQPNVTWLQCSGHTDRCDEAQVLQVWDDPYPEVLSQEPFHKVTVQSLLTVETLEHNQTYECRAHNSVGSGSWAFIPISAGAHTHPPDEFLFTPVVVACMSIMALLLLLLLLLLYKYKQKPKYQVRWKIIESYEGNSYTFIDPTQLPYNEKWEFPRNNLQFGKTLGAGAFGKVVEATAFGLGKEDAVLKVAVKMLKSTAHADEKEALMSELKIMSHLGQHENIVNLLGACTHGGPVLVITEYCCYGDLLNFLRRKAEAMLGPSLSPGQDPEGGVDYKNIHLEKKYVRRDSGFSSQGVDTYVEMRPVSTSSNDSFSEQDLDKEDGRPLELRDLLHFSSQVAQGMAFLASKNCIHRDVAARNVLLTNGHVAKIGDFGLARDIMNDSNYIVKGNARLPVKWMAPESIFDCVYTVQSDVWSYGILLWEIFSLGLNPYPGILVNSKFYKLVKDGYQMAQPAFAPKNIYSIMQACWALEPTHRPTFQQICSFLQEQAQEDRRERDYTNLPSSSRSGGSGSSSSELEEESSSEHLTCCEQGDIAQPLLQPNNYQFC
UniProt Q9UNQ0, whole entry: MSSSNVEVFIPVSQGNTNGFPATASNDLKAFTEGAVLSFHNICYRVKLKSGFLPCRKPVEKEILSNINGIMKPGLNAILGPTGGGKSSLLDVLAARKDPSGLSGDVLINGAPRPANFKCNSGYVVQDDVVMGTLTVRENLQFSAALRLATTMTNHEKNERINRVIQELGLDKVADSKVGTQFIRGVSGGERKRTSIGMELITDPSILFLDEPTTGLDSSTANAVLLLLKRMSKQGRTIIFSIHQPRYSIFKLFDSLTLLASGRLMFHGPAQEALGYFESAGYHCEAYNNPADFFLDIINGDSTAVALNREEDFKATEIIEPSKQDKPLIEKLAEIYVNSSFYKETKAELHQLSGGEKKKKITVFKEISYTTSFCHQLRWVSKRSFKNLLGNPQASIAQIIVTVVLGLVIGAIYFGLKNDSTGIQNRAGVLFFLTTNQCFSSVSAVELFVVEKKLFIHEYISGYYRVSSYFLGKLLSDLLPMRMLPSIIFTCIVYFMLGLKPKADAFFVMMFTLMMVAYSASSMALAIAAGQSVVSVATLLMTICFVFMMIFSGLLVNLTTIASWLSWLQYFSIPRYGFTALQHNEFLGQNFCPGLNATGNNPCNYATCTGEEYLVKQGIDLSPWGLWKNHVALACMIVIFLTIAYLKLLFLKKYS
UniProt P16234, 24-1089 limits assumed: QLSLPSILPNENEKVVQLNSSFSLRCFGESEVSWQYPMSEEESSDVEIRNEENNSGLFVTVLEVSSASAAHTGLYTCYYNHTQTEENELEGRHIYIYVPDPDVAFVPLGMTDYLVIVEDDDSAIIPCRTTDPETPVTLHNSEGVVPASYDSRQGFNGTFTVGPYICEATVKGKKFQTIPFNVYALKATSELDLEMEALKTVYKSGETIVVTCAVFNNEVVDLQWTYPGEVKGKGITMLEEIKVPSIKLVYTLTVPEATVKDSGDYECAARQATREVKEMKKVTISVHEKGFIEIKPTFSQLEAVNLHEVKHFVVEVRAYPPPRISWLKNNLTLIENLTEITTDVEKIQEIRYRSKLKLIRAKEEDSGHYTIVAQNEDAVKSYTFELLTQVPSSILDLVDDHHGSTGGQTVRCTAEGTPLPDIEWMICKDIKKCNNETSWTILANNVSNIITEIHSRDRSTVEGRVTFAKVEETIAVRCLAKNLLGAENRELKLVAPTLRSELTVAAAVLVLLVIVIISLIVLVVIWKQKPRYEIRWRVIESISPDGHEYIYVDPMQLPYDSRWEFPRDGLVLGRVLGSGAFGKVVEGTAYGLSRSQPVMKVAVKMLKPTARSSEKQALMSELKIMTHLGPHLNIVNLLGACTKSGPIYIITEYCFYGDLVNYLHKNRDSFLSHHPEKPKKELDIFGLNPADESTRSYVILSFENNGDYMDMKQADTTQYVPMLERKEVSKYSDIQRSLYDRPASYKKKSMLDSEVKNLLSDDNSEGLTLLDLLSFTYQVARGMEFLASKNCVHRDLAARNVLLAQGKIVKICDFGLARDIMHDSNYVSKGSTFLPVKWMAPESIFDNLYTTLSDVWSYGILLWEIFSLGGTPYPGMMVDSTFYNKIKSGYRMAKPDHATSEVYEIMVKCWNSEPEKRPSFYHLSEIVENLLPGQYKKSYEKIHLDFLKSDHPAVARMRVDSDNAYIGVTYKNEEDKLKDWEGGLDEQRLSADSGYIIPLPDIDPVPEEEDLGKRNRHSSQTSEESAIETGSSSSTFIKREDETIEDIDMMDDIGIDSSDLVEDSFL

| Compound | MDCKII-MDR1: Efflux Ratio (MDR1 (MDR1-MDCKII cells)) | MDCKII-MDR1: Papp A-B (MDR1 (MDR1-MDCKII cells)) | IC50 (wtKIT [1]) | IC50 (CSF-1R [2]) | IC50 [3] | MDCK-BCRP: Efflux Ratio [4] | MDCK-BCRP: Papp A-B [4] | Caco-2: Efflux Ratio (Caco-2 cells) | Caco-2: Papp A-B (Caco-2 cells) | Solubility (μM) (Kinetic solubility assay) | IC50 (PDGFRα [5]) | IC50 (wtKIT [6]) | CYP 3A4 induction mRNA: Mean fold at 10 μM (CYP3A4; donor two) | other results |
| --- | --- | --- | --- | --- | --- | --- | --- | --- | --- | --- | --- | --- | --- | --- |
| O=C(Nc1cccc(-c2noc([C@H]3C[C@@H]3F)n2)c1F)c1cnc2ccccn12 | 0.67 | 23.6 10^−6 cm/s | < 50 nM | 50 to 500 nM | 50 to 500 nM | 0.72 | 17.7 10^−6 cm/s | 0.55 | 27.4 10^−6 cm/s | *** (a solubility greater than 2 μM and less than or equal to 10 μM) | 5000 to 30000 nM |  |  |  |
| Cc1ccc(-c2noc(C3CC3C#N)n2)cc1NC(=O)c1cnc2ccccn12 (stereo not shown) |  |  | < 50 nM |  | < 50 nM | 4.48 | 4.51 10^−6 cm/s | 2.02 | 15.2 10^−6 cm/s | *** (a solubility greater than 2 μM and less than or equal to 10 μM) |  | < 50 nM |  | CYP 3A4 induction mRNA: Mean fold at 10 μM (CYP3A4; donor one): +++ (induction fold of greater than 3-fold to less than or equal to 10-fold); Brain concentration [7]: 845 ng/g; Kp brain/plasma [7]: 0.23; Kp testes/plasma [7]: 0.47; Plasma concentration [7]: 3680 ng/mL; Testes concentration [7]: 1740 ng/g |
| CCCS(=O)(=O)N1CC(c2nc(-c3ccc(C)c(NC(=O)c4cnn5ccccc45)c3)no2)C1 | 2.28 | 11 10^−6 cm/s | < 50 nM | 50 to 500 nM | < 50 nM | 2.55 | 8.23 10^−6 cm/s | 2.37 | 12 10^−6 cm/s | **** (a solubility less than or equal to 2 μM) | 5000 to 30000 nM |  |  |  |
| COc1ccc2ncc(C(=O)Nc3cc(-c4noc(C5CC5F)n4)ccc3Cl)n2c1 (single isomer, unassigned) |  |  |  |  | < 50 nM |  |  |  |  | **** (a solubility less than or equal to 2 μM) |  | < 50 nM | +++ (induction fold of greater than 3-fold to less than or equal to 10-fold) | IC50 (PDGFRα [8]): 50 to 500 nM; IC50 (CSF-1R [9]): < 50 nM |
| Cc1ccc(-c2noc(CC(C)O)n2)cc1NC(=O)c1cnc2ccccn12 (single isomer, unassigned) [I-256] |  |  | < 50 nM | 50 to 500 nM |  | 9.12 | 3.76 10^−6 cm/s |  |  | * (a solubility greater than 50 μM) | 5000 to 30000 nM | 50 to 500 nM | + (induction fold of less than or equal to 2-fold) | Brain concentration [7]: 105 ng/g; Kp brain/plasma [7]: 0.06; Kp testes/plasma [7]: 0.25; Plasma concentration [7]: 1880 ng/mL; Testes concentration [7]: 477 ng/g |
| Cc1ccc(-c2noc(C[C@H](C)O)n2)cc1NC(=O)c1cnc2ccccn12 | 1.83 | 15.3 10^−6 cm/s | < 50 nM | 50 to 500 nM | < 50 nM | 10.7 | 3.33 10^−6 cm/s | 1.8 | 6 10^−6 cm/s |  | 500 to 5000 nM |  |  |  |
| Cc1ccc(-c2noc([C@H]3C[C@H]3F)n2)cc1NC(=O)c1cnc2ccccn12 |  |  | < 50 nM | 50 to 500 nM | < 50 nM |  |  |  |  |  | 500 to 5000 nM | < 50 nM | ++ (induction fold of greater than 2-fold to less than or equal to 3-fold) | IC50 (PDGFRα [8]): 500 to 5000 nM; IC50 (CSF-1R [9]): 50 to 500 nM |
| Cc1ccc(-c2noc([C@H]3C[C@@H]3F)n2)cc1NC(=O)c1cnc2n1CCCC2 |  |  |  |  | 50 to 500 nM |  |  |  |  | * (a solubility greater than 50 μM) |  | 50 to 500 nM | + (induction fold of less than or equal to 2-fold) | IC50 (PDGFRα [8]): 5000 to 30000 nM; IC50 (CSF-1R [9]): 500 to 5000 nM |
| Cc1ccc(-c2noc(CC(O)C(F)F)n2)cc1NC(=O)c1cnc2ccccn12 (stereo not shown) [Compound I-476] | 2.24 | 9.15 10^−6 cm/s | < 50 nM | < 50 nM | < 50 nM |  |  | 5.15 | 5.78 10^−6 cm/s | **** (a solubility less than or equal to 2 μM) | 500 to 5000 nM | < 50 nM |  | IC50 (PDGFRα [8]): 500 to 5000 nM; Brain concentration [7]: 143 ng/g; Kp brain/plasma [7]: 0.11; Kp testes/plasma [7]: 0.5; Plasma concentration [7]: 1370 ng/mL; Testes concentration [7]: 683 ng/g; IC50 (CSF-1R [9]): 50 to 500 nM |
| Cc1ccc(-c2noc(C3CCN3CCC(F)(F)F)n2)cc1NC(=O)c1cnc2ccccn12 (stereo not shown) | 0.73 | 22 10^−6 cm/s | < 50 nM | 50 to 500 nM | < 50 nM |  |  | 0.44 | 18.1 10^−6 cm/s | *** (a solubility greater than 2 μM and less than or equal to 10 μM) | 500 to 5000 nM |  |  |  |
| Cc1ccc(-c2noc([C@H]3C[C@@H]3F)n2)cc1NC(=O)c1cnc2cc(C3COC3)ccn12 | 1.45 | 11.7 10^−6 cm/s | < 50 nM | 50 to 500 nM | < 50 nM | 7.82 | 4.44 10^−6 cm/s | 2.85 | 8.17 10^−6 cm/s | ** (a solubility greater than 10 μM and less than or equal to 50 μM) | 500 to 5000 nM |  |  |  |
| CCCS(=O)(=O)N1CC[C@@H]1c1nc(-c2ccc(Cl)c(NC(=O)c3cnc4ccccn34)c2)no1 | 0.63 | 16.2 10^−6 cm/s | < 50 nM | 50 to 500 nM | 50 to 500 nM |  |  | 0.67 | 12.6 10^−6 cm/s | * (a solubility greater than 50 μM) | 500 to 5000 nM |  |  |  |
| COc1ccc2ncc(C(=O)Nc3cc(-c4noc([C@H]5C[C@@H]5F)n4)ccc3C)n2c1 |  |  | < 50 nM | < 50 nM | < 50 nM |  |  |  |  | *** (a solubility greater than 2 μM and less than or equal to 10 μM) | 500 to 5000 nM |  | +++ (induction fold of greater than 3-fold to less than or equal to 10-fold) |  |
| Cc1ccc(-c2noc([C@@H]3CC[C@@H]3C#N)n2)cc1NC(=O)c1cnc2ccccn12 (relative stereo) | 1.35 | 17.7 10^−6 cm/s | < 50 nM | 50 to 500 nM | < 50 nM | 3.83 | 7.64 10^−6 cm/s | 2.42 | 11.6 10^−6 cm/s | *** (a solubility greater than 2 μM and less than or equal to 10 μM) | 500 to 5000 nM |  | +++ (induction fold of greater than 3-fold to less than or equal to 10-fold) | Brain concentration [7]: 289 ng/g; Kp brain/plasma [7]: 0.15; Kp testes/plasma [7]: 0.38; Plasma concentration [7]: 1920 ng/mL; Testes concentration [7]: 732 ng/g |
